Read-outs that look alike come from different tables or passages of the source.
Assays:
[1] = molecular target: T1, aggregated synthetic Aβ40 (Homo sapiens, UniProt P05067); assay: Thiazin-red R displacement fluorescence assay on aggregated A-beta; assay type: binding
T1 construct: Synthetic Aβ40 is aggregated at a concentration of 50 μM
Description: (§1) Assay for Determination of […] for Tau and A-Beta
(§2) Recombinant human-microtubule associated protein Tau purified from E. coli is aggregated at a concentration of 5 μM with Arachidonic Acid (100 μM) in Tris 10 mM pH8, 24 h at 37° C. Synthetic Aβ40 is aggregated at a concentration of 50 μM with Arachidonic Acid (100 μM) in Tris 10 mM pH8, for three days at 37° C., under shaking at 150 rpm.
(§3) A saturation analysis of Thiazin-red R to the aggregated proteins is done to determine the affinity (Kd) of the Thiazin-red R to the aggregated protein.
(§4) Thiazin-red R will be added at the concentration corresponding to the Kd to the respective aggregated protein binding site, to induce a fluorescent signal that can be inhibited by the addition of a displacer compound.
(§5) In parallel, auto fluorescence of the compound is measured together with the aggregated proteins, but without Thiazin-red R. As negative control, ligand and aggregated protein is used and as positive control, Thiazin-red R, reference compound with known activity and aggregated protein is used.
(§6) Assay is performed in Perkin Elmer OptiPlate 384, black, 45 ul assay volume, assay buffer is DPBS no CaCl2 no MgCl2 (GIBCO N. 14020). Tested compounds are diluted in DMSO and 2 μl is added to the assay ([…]). Assay is started by the addition of the aggregated protein (competitive condition). […]

Amino acid sequences for entries named in this document (tags omitted). Residues count along the entry.
UniProt P05067, 672-711 limits assumed: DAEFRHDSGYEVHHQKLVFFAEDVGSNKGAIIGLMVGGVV
UniProt P10636, whole entry: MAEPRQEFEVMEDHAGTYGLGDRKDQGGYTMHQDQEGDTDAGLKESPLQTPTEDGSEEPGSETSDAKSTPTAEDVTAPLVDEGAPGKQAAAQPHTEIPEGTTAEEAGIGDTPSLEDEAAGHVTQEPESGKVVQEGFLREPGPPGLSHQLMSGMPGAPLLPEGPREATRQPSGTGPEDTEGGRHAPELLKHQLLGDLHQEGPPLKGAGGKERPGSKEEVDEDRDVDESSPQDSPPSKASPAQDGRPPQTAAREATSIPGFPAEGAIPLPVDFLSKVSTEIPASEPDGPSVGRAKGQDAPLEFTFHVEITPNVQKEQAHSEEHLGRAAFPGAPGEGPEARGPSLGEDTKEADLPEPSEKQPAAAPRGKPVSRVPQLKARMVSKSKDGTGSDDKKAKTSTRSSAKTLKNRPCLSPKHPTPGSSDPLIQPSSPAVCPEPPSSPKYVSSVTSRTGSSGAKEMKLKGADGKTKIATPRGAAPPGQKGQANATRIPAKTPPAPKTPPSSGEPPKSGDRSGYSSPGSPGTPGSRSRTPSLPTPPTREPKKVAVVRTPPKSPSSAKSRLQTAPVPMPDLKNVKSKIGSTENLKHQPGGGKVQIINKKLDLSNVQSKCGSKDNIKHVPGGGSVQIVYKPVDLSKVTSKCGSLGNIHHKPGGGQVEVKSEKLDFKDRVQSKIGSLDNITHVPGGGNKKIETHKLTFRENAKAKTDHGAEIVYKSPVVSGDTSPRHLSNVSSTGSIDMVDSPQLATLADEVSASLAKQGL

[2] = molecular target: T2, aggregated recombinant human-microtubule associated protein Tau (Homo sapiens, UniProt P10636); assay: Thiazin-red R displacement fluorescence assay on aggregated Tau; assay type: binding
T2 construct: Recombinant human-microtubule associated protein Tau purified from E. coli is aggregated at a concentration of 5 μM with Arachidonic Acid (100 μM) in Tris 10 mM pH8, 24 h at 37° C
Description: as §1, §2, §3, §4, §5, §6

COc1cc(/C=c2\sc3nc(-c4cccc(Cl)c4)cn3c2=O)cc(Cl)c1O [Example 25, 6-(3-Chloro-phenyl)-2-[1-(3-chloro-4-hydroxy-5-methoxy-phenyl)-meth-(Z)-ylidene]-imidazo[2,1-b]thiazol-3-one]
IC50 ([1]; displacement of Thiazin-red R from aggregated Aβ40, compound 0.3 nM to 10000 nM, 30 min room temperature, Ex 531 nm/Em 595 nm): 253 nM
IC50 ([2]; displacement of Thiazin-red R from aggregated Tau, compound 0.3 nM to 10000 nM, 30 min room temperature, Ex 531 nm/Em 595 nm): 0.5 nM

COc1cc(/C=c2\sc3nc(-c4cccc(Cl)c4)cn3c2=O)cc(OC)c1O [Example 21, 6-(3-Chloro-phenyl)-2-[1-(4-hydroxy-3,5-dimethoxy-phenyl)-meth-(Z)-ylidene]-imidazo[2,1-b]thiazol-3-one]
IC50 [1]: 6 nM
IC50 [2]: 1 nM

Reference: patent publication US20150157739A1, “Imidazo[2,1]thiazol-3-one derivatives” (Hoffmann-La Roche Inc., priority 2012, published 2015)
